Assay results: ChEMBL document CHEMBL1141597, “2-Alkyl-4-aryl-pyrimidine fused heterocycles as selective 5-HT2A antagonists” (Bioorg Med Chem Lett, 2008)
pKi: −log10 of the molar value. Calls of active or inactive are those of the source. No cut-off for these calls is given here.

The chains behind the UniProt entries cited, without tags or fusion partners.
UniProt P28223, whole entry: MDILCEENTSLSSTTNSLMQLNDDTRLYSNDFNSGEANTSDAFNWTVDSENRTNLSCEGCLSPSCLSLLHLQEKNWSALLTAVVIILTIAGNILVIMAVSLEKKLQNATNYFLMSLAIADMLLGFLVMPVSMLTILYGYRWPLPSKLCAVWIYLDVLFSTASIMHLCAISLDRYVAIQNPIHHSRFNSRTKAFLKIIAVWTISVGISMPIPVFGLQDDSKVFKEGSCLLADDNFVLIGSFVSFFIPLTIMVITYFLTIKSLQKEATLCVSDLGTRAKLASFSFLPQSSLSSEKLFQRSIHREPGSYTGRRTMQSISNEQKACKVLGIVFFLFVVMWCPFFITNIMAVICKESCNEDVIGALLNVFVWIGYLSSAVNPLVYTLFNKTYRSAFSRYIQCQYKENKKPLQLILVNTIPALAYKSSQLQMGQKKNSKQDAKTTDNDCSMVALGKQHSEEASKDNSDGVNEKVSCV
UniProt P41595, whole entry: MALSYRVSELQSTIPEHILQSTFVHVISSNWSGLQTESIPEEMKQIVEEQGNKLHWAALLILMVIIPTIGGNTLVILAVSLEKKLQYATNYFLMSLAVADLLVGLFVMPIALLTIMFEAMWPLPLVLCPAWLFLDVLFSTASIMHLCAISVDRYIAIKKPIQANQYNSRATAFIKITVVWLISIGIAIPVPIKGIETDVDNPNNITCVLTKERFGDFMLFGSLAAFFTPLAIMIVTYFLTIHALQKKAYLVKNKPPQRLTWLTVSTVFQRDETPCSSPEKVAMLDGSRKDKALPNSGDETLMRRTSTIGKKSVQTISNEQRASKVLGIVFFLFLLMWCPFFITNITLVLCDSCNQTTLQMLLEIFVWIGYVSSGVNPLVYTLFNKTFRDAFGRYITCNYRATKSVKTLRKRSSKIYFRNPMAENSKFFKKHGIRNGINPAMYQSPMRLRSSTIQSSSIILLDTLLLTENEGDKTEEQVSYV

Experiments:
[1] = molecular target: 5-hydroxytryptamine receptor 2A (Homo sapiens, UniProt P28223); experiment: Displacement of [3H]ketanserin from human recombinant 5HT2A receptor expressed in mouse NIH3T3 cells; assay type: cell-based
[2] = molecular target: 5-hydroxytryptamine receptor 2B (Homo sapiens, UniProt P41595); experiment: Antagonist activity at human recombinant 5HT2B receptor expressed in CHO cells assessed as increase in calcium levels; assay type: functional, cell-based

CCC(C)c1nc2c(c(-c3ccc(F)cc3)n1)CNCC2 (stereo not drawn)
pKi [1]: 7.96

CC(C)c1nc2c(c(-c3ccc(F)cc3)n1)CCNCC2
Activity [2]: inactive

Cc1ccc(-c2nc(C3CCCC3)nc3c2CCNCC3)cc1
pKi [1]: 8.60
